Ki data for two compounds are collected here from ChEMBL document CHEMBL1142243, “Potent and selective alpha-ketoheterocycle-based inhibitors of the anandamide and oleamide catabolizing enzyme, fatty acid amide hydrolase” (J Med Chem, 2007).

Broadly, the Ki is a measure of affinity in units of concentration, obtained from inhibition or displacement.

For the experiment, the target named is Fatty-acid amide hydrolase 1 (Rattus norvegicus) (UniProt P97612). Kind of experiment: Inhibition of rat recombinant FAAH expressed in Escherichia coli by [14C]oleamide breakdown.

Turning to `O=C(CCCCCCc1ccccc1)c1ncc(-c2ccccc2)o1`, the inhibition constant Ki stood at 80 nM. Take `COC(=O)c1cccc(-c2cnc(C(=O)CCCCCCc3ccccc3)o2)n1`: the Ki came out at 8 nM.
